Measured values taken from US6808893 (Johns Hopkins, dated 2004).

Legend:
[1] = molecular target: T1, myc-tagged full-length GTRAP4-48 (rat, UniProt Q9ES67); assay: GST pull-down from HEK 293T lysate, anti-c-myc immunoblot
T1 construct: tested from solubilized cell extract; also called myc-tagged GTRAP4-48; not shown: myc tag of the myc-tagged pRK5 vector
Method: (§1) Fusion proteins and in vitro binding. Full-length EAAT4 was subcloned into the EcoR I site of the GST-fusion vector pGEX-6P-1 (Pharmacia). Synthesis of recombinant proteins in BL21 cells (Novagen) was induced by 0.1 mM isopropyl β-D-thiogalactoside for 2 hrs at 30° C. and purified according to the protocol provided by the manufacturer (Pharmacia). […] The cellular lysate was incubated with GST or GST-EAAT4 immobilized on glutathione-Sepharose-4B, and washed to remove non-specifically bound proteins. Specifically bound proteins were eluted with 2×SDS loading buffer and analyzed by immunoblotting using an anti-c-myc antibody.
(§2) GTRAP4-41 and 4-48 Immunoprecipitation with Fusion Proteins. Full-length EAAT4 was subcloned into the EcoR I site of the GST-fusion vector pGEX-6P-1 (Pharmacia). Synthesis of recombinant proteins in BL21 cells (Novagen) was induced by 0.1 mM isopropyl b-D-thiogalactoside for 2 hrs at 30° C. and prepared as a crude bacterial lysate by mild sonication in ice-cold 1 C PBS and solubilization in 1% Triton X-100. Cell debris was removed by centrifugation at 7,000 g and the cleared bacterial lysate applied to glutathione-Sepharose-4B (Pharmacia). […] Specifically bound proteins were eluted with 3×SDS loading buffer and analyzed by immunoblotting using an anti-c-myc antibody. […]

[2] = molecular target: T2, myc-tagged full-length GTRAP4-41 (rat, UniProt Q9QWN8); assay: as above
T2 construct: tested from solubilized cell extract; also called myc-tagged GTRAP4-41; not shown: myc tag of the myc-tagged pRK5 vector
Method: as §1, §2

binding result [1]: no binding
binding result [2]: no binding
B1: GST (glutathione S-transferase) alone (other, UniProt P08515 1-218, looked up)
chain: MSPILGYWKIKGLVQPTRLLLEYLEEKYEEHLYERDEGDKWRNKKFELGLEFPNLPYYIDGDVKLTQSMAIIRYIADKHNMLGGCPKERAEISMLEGAVLDIRYGVSRIAYSKDFETLKVDFLSKLPEMLKMFEDRLCHKTYLNGDHVTHPDFMLYDALDVVLYMDPMCLDAFPKLVCFKKRIEAIPQIDKYLKSSKYIAWPLQGWQATFGGGDHPPK
notes: Control, immobilized on glutathione-Sepharose
